From patent US9598396B2, “Tetrahydrophenanthridinones and tetrahydrocyclopentaquinolinones as PARP and tubulin polymerization inhibitors” (Janssen Pharmaceutica NV, priority 2008, dated 2017)

Chains of the proteins cited; added tags and fusions are not shown.
UniProt P09874, whole entry: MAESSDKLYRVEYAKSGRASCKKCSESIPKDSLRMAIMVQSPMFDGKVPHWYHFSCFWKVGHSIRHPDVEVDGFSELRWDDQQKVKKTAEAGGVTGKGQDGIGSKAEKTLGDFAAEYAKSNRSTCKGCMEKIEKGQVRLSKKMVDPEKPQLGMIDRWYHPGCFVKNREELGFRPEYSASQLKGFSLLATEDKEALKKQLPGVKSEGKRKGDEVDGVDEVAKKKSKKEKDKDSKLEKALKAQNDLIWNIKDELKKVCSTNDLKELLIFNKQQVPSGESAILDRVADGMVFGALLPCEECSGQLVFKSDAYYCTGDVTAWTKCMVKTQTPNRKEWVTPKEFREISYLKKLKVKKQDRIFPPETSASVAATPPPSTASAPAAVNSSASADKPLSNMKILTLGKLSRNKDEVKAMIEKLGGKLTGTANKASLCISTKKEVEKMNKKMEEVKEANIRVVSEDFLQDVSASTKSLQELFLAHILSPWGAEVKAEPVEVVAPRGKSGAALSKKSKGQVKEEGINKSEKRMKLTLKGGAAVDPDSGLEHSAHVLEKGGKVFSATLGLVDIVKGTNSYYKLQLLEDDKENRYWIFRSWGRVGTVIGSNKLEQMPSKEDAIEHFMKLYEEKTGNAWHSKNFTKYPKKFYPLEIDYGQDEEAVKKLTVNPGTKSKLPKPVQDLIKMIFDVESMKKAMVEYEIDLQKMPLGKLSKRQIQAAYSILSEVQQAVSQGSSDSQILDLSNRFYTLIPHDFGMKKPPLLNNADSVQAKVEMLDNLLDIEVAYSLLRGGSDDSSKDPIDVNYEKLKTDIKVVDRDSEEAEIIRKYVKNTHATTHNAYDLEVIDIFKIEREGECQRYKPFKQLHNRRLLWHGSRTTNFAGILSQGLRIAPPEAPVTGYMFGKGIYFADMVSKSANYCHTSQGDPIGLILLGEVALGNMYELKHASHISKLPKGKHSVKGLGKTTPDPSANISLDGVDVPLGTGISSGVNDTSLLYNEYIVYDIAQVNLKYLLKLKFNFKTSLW

Biological target: Human PARP-1 enzyme (Homo sapiens (Human), UniProt P09874)
Assay: In vitro Scintillation Proximity Assay (SPA) for PARP-1 inhibitory activity
Assay type: biochemical
Conditions: nicked DNA activated PARP-1, [3H]-NAD+, biotinylated histones
Experimental: C.1.In Vitro Scintillation Proximity Assay (SPA) for PARP-1 Inhibitory Activity
Compounds of the present invention were tested in an in vitro assay based on SPA technology (proprietary to GE healthcare).
In principle, the assay relies upon the well established SPA technology for the detection of poly(ADP-ribosyl)ation of biotinylated target proteins, i.e histones. This ribosylation is induced using nicked DNA activated PARP-1 enzyme and [^3H]-nicotinamide adenine dinucleotide ([^3H]-NAD^+) as ADP-ribosyl donor.
Histones (type II-A, supplier: Sigma) were biotinylated using the biotinylation kit of Amersham and stored aliquoted at −20° C. A stock solution of 100 mg/ml SPA poly(vinyl toluene) (PVT) beads (supplier: Amersham) was made in PBS. A stock solution of 61.6 nM […] was made by adding [^3H]-NAD^+ (0.1 mCi/ml, supplier: Perkin Elmer) to incubation buffer (50 mM Tris/HCl, pH 8; 0.2 mM DTT; 4 mM MgCl2). A solution of 4 mM NAD^+ (supplier: Sigma) was made. […] The beads were sedimented by centrifugation (10 min, 800 rpm) and plates transferred to a TopCountNXT™ (Packard) for scintillation counting, values were expressed as counts per minute (cpm). […] For each sample, the amount of cpm was expressed as a percentage of the mean cpm value of the controls. […] Herein the effects of test compounds are expressed as pIC50 (the negative log value of the IC50-value). […]

With COc1cc(OC)nc(CC(C)(C#N)c2ccc3c4c(c(=O)[nH]c3c2)CCCC4)n1 (stereo not shown) [Co. No. 6] the “in vitro SPA assay PARP-1 pIC50” value was 7.27.
